Assay results: publication PMC12064818, “A general assay platform to study protein pharmacology using ligand-dependent structural dynamics” (Nature Communications, 2025)

How the values were obtained:
PKA-N-HiBiT = PKA-N-HiBiT (Homo sapiens, UniProt P17612)
[1] = target: T1, ABL1-N-HiBiT kinase domain (Homo sapiens, UniProt P00519)
[2] = target: T1, ABL1-N-HiBiT kinase domain; test: ABL1 peptide phosphorylation, Kinase-Glo Plus (KGP) assay, ABL1-N-HiBiT

| SMILES | SDR Ave Max Response (PKA-N-HiBiT) | ABL1 SDR pSDR50 [1] | SDR Ave Max Response [1] | EC50 ([1]; read-out: SDR Ave SDR50) | ABL1 KGP pIC50 [2] | IC50 ([2]; read-out: ABL1 KGP Ave IC50) |
| --- | --- | --- | --- | --- | --- | --- |
| CCN1CCN(Cc2ccc(NC(=O)Nc3ccc(Oc4cc(NC)ncn4)cc3)cc2C(F)(F)F)CC1 [AST-487] | 24.95 | – | – | – | – | – |
| Cc1ccc(NC(=O)c2ccc(CN3CCN(C)CC3)cc2)cc1Nc1nc(-c2cccnc2)cs1 [Masitinib] | – | 6.21 | 56.54 | 0.66 µM | 4.79 | 17.5 µM |
